In patent US9695209B2, “Synthesis of amphiphilic calixarene glycoside detergents and use of same for extracting and stabilizing native functional membrane proteins” (CALIXAR, priority 2014, dated 2017):

Molecular target: A2A adenosine protein (Homo sapiens, UniProt P29274)
Assay: Test of solubilization of A2A membrane protein (Western Blot after 100 000 g centrifugation)
Experimental: Enzymol., 125, 27-35]) and 25-heptyloxy-26,27,28-tris(hydroxyl)calix-[4]-arene-5,11,17-tris(acetic acid) sodium salt (called “CALX173ACE”, CMC (H2O)=2.5 mM).
Solubility Test of Protein of Interest: A2A Adenosine.
The protein content was set at 20 mg/ml (20 mM Tris-Cl pH 8.0, 150 mM NaCl, 10% Glycerol). The solubilization is effected at 4° C. The solubilized or non-solubilized protein fractions are separated by a 100 000 g centrifugation step for 1 hour at 4° C.
FIGS. 4a) and 4b) show the test of solubilization of membrane proteins enriched in A2A adenosine protein with CALX173GALO (Western Blot “C”) and CALX173GLUK (Western Blot “D” and “E”) calixarenes of the present invention, and also known detergents, e.g. n-Dodecyl-β-D-Maltopyranoside (called DDM, Western Blot “A”) and 25-heptyloxy-26,27,28-tris(hydroxyl)calix-[4]-arene-5,11,17-tris(acetic acid) sodium salt (called here “CALX173ACE”, Western Blot “B”).

solubilization of A2A protein (20 CMC, reference compounds): about 20%
solubility (solubilization) of A2A adenosine protein (detergent at 20 CMC, 4° C, protein 20 mg/ml): partial
Substance: 25-heptyloxy-26,27,28-tris(hydroxyl)calix-[4]-arene-5,11,17-tris(acetic acid) sodium salt [CALX173ACE]
